## scFv variants of Ab-14 (heavy chain) against a SARS-CoV-2 spike peptide

All variants were tested on one target, the spike HR2 peptide PDVDLGDISGINAS (SARS-CoV-2).

The variants keep the light chain, the linker and the frameworks of Ab-14 (scFv order VH, a 15-residue (Gly4Ser)3 linker, VL).
VH: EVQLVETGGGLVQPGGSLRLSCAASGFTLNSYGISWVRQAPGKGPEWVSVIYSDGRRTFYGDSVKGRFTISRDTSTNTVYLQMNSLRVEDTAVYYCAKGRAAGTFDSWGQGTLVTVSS
VL: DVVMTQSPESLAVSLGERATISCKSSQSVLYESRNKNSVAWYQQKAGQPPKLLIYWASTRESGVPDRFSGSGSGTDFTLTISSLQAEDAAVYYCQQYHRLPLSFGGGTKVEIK

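Phage display of a naive human antibody library on the peptide gave the parent. These sequences belong to a second round, designed from the earlier measurements on random variants of the parent. Group labels follow the data file (Ctrl: baseline library sampled from a position-specific scoring matrix, with some repeated check sequences; En: ensemble of fine-tuned language models; HC: hill climbing; Gen: genetic algorithm; Gibbs: Gibbs sampling; a sequence that several methods proposed may carry one label only). AlphaSeq pools MATa yeast showing the antibodies with MATalpha yeast showing the peptide. Binding brings cells together so that they mate, and sequencing counts the barcode pairs among the diploids. Read counts were normalised to the haploid input and turned into Kd by a linear fit to BCL2-family pairs of known affinity, for each replicate. Each pool was mated in six replicate cultures.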

The parent's heavy chain CDRs are GFTLNSYGIS, VIYSDGRRTFYGDSVK, GRAAGTFDS; each variant's own CDRs replace them letter for letter. This list holds designs with more than six substitutions. Kd is apparent (estimated from mating counts) and averaged on the log scale over replicates with a signal. Smaller is tighter. Where no diploid with the target was found in any replicate, the entry reads "nd": below detection, most likely a poor binder, though not proof of it.

The variant GFSLDEYGIS, VIYADGKRTFYADSVK, GNVAGTFDV [En_HC] showed 4.3 nM (6 of 6 replicates).
The variant GFNLNEYGIS, VIYADGVRTFYTDDVK, GEFAGTFDL [En_HC] showed 310 pM (6 of 6 replicates).
The variant GNNLDEYGIS, VIYADGQRSAYAQDVK, GETGDNAFT [En_Gibbs] showed nd (0 of 6 replicates).
The variant GFDIEEYGIS, VIYADGVRTVYADDVK, GIAKGYSLT [En_Gibbs] showed nd (0 of 6 replicates).
The variant GFDLDEYGIS, VIYADGMRTAYSDSVK, GNNAGTFDQ [En_Gen] showed 1.0 nM (6 of 6 replicates).
The variant GFDLEEYGIS, VIYADGVRTAYVDNSK, GENGGAYYT [En_Gibbs] showed nd (0 of 6 replicates).
The variant GFDLDEYGIS, VIYADGMRTAYSDSVK, GETAGTFDT [En_Gen] showed 640 pM (6 of 6 replicates).
The variant GFSIDEYGIS, VIYADGVRTAVDPSFK, GQMAAFFDE [En_Gibbs] showed nd (0 of 6 replicates).
The variant GFDLNEYGIS, VIYADGSRTAYADSVK, GANAGTFDV [En_Gen] showed 280 pM (6 of 6 replicates).
The variant GFDLNEYGIS, VIYADGMRTSYADDVK, GNVAGTFDL [En_Gen] showed nd (0 of 6 replicates).
The variant GFGLDEYGIS, VIYADGQRTFYADSVK, GENAGTFDM [En_HC] showed 770 pM (6 of 6 replicates).
The variant GFDLNEYGIS, VIYADGRRTVYADSVK, GQLAGTFDF [En_HC] showed 190 pM (6 of 6 replicates).
The variant GFDLNEYGIS, VIYADGMRTAYADNVK, GENAGTFDI [En_Gen] showed 670 pM (6 of 6 replicates).
The variant GFNLDEYGIS, VIYADGVRTAYVDKVK, GFGQVLSLI [En_Gibbs] showed nd (0 of 6 replicates).
The variant GFQLDEYGIS, VIYADGIRQYYAQKVK, GYNSTDMTV [En_Gibbs] showed nd (0 of 6 replicates).
The variant GFDLNEYGIS, VIYADGMRKAYADDVK, GTNAGTFDV [En_Gen] showed 570 pM (6 of 6 replicates).
The variant GFQIDEYGIS, VIYADGLRTVYSDAVK, GMDTGLFMD [En_Gibbs] showed nd (0 of 6 replicates).
The variant GFDLNEYGIS, VIYADGMRTAYADDVK, GNAAGTFDV [En_Gen] showed 960 pM (6 of 6 replicates).
The variant GFTLNEYGIS, VIYADGRRTFYIDAFK, GMIAGTFMS [Ctrl] showed nd (0 of 6 replicates).
The variant GFDINEYGIS, VIYADGRRTFYTDSVK, GGNAGTFDV [En_HC] showed 240 pM (6 of 6 replicates).
The variant GFDINEYGIS, VIYADGIRTSYQNKVK, GRSGGIINV [En_Gibbs] showed nd (0 of 6 replicates).
The variant GFDLNEYGIS, VIYADGRRTAYTDSVK, GNNAGTFDM [En_HC] showed 600 pM (6 of 6 replicates).
The variant GFDLNEYGIS, VIYADGARTFYTDSVK, GEVAGTFDS [En_HC] showed 580 pM (6 of 6 replicates).
The variant GFDLNEYGIS, VIYADGMRTHYTDSVK, GNEAGTFDQ [En_HC] showed 5.4 nM (6 of 6 replicates).
The variant GFDLNEYGIS, VIYADGRRTFYIDSVK, GEIAGTFVS [En_HC] showed 600 pM (6 of 6 replicates).
The variant GFDLNEYGIS, VIYADGMRTAYVDSVK, GETAGTFDI [En_Gen] showed 800 pM (6 of 6 replicates).
The variant GFDLNEYGIS, VIYADGRRTFYSDSVK, GTVAGTFDA [En_HC] showed 150 pM (6 of 6 replicates).
The variant GFDLNEYGIS, VIYADGMRTVYADSVK, GETAGTFDV [En_Gen] showed 200 pM (6 of 6 replicates).
The variant GFDLNEYGIS, VIYADGMRTAYADDVK, GENAGTFDM [En_Gen] showed 160 pM (6 of 6 replicates).
The variant GFDLNEYGIS, VIYADGQRTAYSDSVK, GENAGTFDT [En_Gen] showed 1.0 nM (6 of 6 replicates).
The variant GFNIDEYGIS, VIYADGVRTAYADKVK, GFNWNLSVN [En_Gibbs] showed 1.8 µM (1 of 6 replicates).
The variant GFDLNEYGIS, VIYADGMRTAYIDNVK, GNVAGTFDV [En_Gen] showed 620 pM (6 of 6 replicates).
The variant GFDLNEYGIS, VIYADGLRTSYADSVK, GQVAGTFDQ [En_HC] showed 760 pM (6 of 6 replicates).
The variant GFDLDEYGIS, VIYADGKRTAYADNVK, GEVAGTFDL [En_Gen] showed 320 pM (6 of 6 replicates).

Extract of 5 entries:

CDR-H1	CDR-H2	CDR-H3	group	apparent Kd	replicates with signal
GFDLNEYGIS	VIYADGRRTFYSDSVK	GTVAGTFDA	En_HC	150 pM	6 of 6
GFDLNEYGIS	VIYADGMRTSYADDVK	GNVAGTFDL	En_Gen	nd	0 of 6
GFDLNEYGIS	VIYADGQRTAYSDSVK	GENAGTFDT	En_Gen	1.0 nM	6 of 6
GNNLDEYGIS	VIYADGQRSAYAQDVK	GETGDNAFT	En_Gibbs	nd	0 of 6
GFDLNEYGIS	VIYADGMRTVYADSVK	GETAGTFDV	En_Gen	200 pM	6 of 6

Three control strains display no target. For all heavy chain designs, 1% of the pairings with them gave a signal, with a median of 120 nM and one signal in twenty below 7.0 nM, so weak values seen in few replicates may be background. A sequence measured in both rounds can read differently, since the two assays cover different ranges. In the paper, a design with two or fewer of six values counts as a poor binder.

Reference: Li et al. 2023, doi:10.1038/s41467-023-39022-2. File: FLAb, binding data.